The source of these data is patent publication US20130316985A1, “GPR35 Ligands And Uses Thereof” (CORNING INCORPORATED, priority 2012, published 2013).

By UniProt entry, the sequences of proteins in these tests, tags left out.
UniProt Q9HC97, whole entry: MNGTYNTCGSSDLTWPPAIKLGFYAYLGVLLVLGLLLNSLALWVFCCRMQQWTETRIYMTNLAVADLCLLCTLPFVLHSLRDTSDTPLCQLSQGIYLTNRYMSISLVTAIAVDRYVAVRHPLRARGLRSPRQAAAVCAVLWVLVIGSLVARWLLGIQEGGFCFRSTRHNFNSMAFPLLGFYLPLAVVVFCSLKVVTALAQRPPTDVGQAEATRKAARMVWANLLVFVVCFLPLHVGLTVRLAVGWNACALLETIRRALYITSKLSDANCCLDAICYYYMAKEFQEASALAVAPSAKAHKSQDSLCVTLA

Assay [1] concerns the target T1, GPR35 (Homo sapiens, UniProt Q9HC97). Put plainly: Tango β-arrestin translocation gene reporter assay in U2OS-GPR35-bla cells. The assay is classed as cell-based.
Assay [2] addresses T1, GPR35. Put plainly: DMR agonism assay in native HT-29 cells (Epic optical biosensor). Particulars: maximal DMR response in HT-29 (2,5-DNP: amplitude at 50 min).

Molecules are shown by their SMILES.

On to `CC(=O)C(=Cc1cc(O)c(O)c([N+](=O)[O-])c1)C(C)=O`, for which the “efficacy (Tango, normalized to maximal response of zaprinast)” value at GPR35 [1] (U2OS-GPR35-bla, zaprinast maximal response in same plate = 100%) stood at 13%. Moreover, the “Efficacy Tango” value on GPR35 [1] (maximal response normalized to the zaprinast maximal response) turned out to be 13 ± 1 % zaprinast. On GPR35 [2], the “Efficacy DMR” value worked out at 207 ± 14 pm.
